Measured values from paper PMC2859821 (Molecular pharmaceutics, 2009).

How the values were obtained:
HeLa cells [1] = system: HeLa cells
HeLa cells [2] = system: HeLa cells; remark: listed apart in the source
HeLa cells [3] = settings: previously determined; cited from earlier work

| Substance | effect of NH4Cl on diffused fluorescence (HeLa cells [1]) | effect of NH4Cl on punctate fluorescence (HeLa cells [1]) | effect of hypertonic sucrose on punctate and diffused fluorescence (HeLa cells [1]) | reduction of cell-associated fluorescence by KPBS (HeLa cells [2]) | total cell-associated fluorescence in cells incubated with KPBS, relative to control cells incubated with PBS (HeLa cells [2]) [%] | active uptake at 40 min relative to saturation level (HeLa cells [3]) | effect of MDC on diffuse and punctate fluorescence (HeLa cells [1]) | effect of cell energy-depletion on intracellular fluorescence (HeLa cells [1]) | intracellular fluorescence pattern in KPBS (HeLa cells [1]) | concentration at which diffuse (cytosolic/nuclear) fluorescence predominated (HeLa cells [1]; pH 7.4) | concentration at which punctate (vesicular) fluorescence predominated (HeLa cells [1]; pH 7.4) |
| --- | --- | --- | --- | --- | --- | --- | --- | --- | --- | --- | --- |
| rhodamine-R.I.-CKTat9 [Rho-R.I.-CKTat9] | completely abolished | had no effect | greatly reduced | – | – | – | – | – | – | – | – |
| 5(6)-Carboxyfluorescein-R.I.-CKTat9 [Flu-R.I.-CKTat9] | – | – | – | more than 90% | 44.9 | greater than half of its saturation level | both types of fluorescence are greatly reduced | virtually abolished both the punctate and diffuse fluorescence | only green punctate fluorescence | above 7 μM | below 3 μM |
